How the values were obtained:
K-562 = test: NCI in vitro anti-cancer activity; conditions: Table 29, Leukemia
UACC-62 = test: NCI in vitro anti-cancer activity, Melanoma; conditions: Table 29, Melanoma
LOX IMVI = test: NCI in vitro anti-cancer activity, Melanoma; conditions: Table 29, Melanoma
UACC-257 = test: NCI in vitro anti-cancer activity, Melanoma; conditions: Table 29, Melanoma
MALME-3M = test: NCI in vitro anti-cancer activity, Melanoma; conditions: Table 29, Melanoma
M14 = test: NCI in vitro anti-cancer activity, Melanoma; conditions: Table 29, Melanoma
SK-MEL-28 = test: NCI in vitro anti-cancer activity, Melanoma; conditions: Table 29, Melanoma
SK-MEL-2 = test: NCI in vitro anti-cancer activity, Melanoma; conditions: Table 29, Melanoma
SF-539 = test: NCI in vitro anti-cancer activity, CNS Cancer; conditions: Table 29, CNS Cancer
U251 = test: NCI in vitro anti-cancer activity, CNS Cancer; conditions: Table 29, CNS Cancer
SF-268 = test: NCI in vitro anti-cancer activity, CNS Cancer; conditions: Table 29, CNS Cancer
SF-295 = test: NCI in vitro anti-cancer activity, CNS Cancer; conditions: Table 29, CNS Cancer
SNB-75 = test: NCI in vitro anti-cancer activity, CNS Cancer; conditions: Table 29, CNS Cancer, SNB-75
SNB-19 = test: NCI in vitro anti-cancer activity, CNS Cancer; conditions: Table 29, CNS Cancer
786-0 = test: NCI in vitro anti-cancer activity, Renal Cancer; conditions: Table 29, Renal Cancer
CAKI-1 = test: NCI in vitro anti-cancer activity, Renal Cancer; conditions: Table 29, Renal Cancer
RXF 393 = test: NCI in vitro anti-cancer activity, Renal Cancer; conditions: Table 29, Renal Cancer, RXF 393
ACHN = test: NCI in vitro anti-cancer activity, Renal Cancer; conditions: Table 29, Renal Cancer
UO-31 = test: NCI in vitro anti-cancer activity, Renal Cancer; conditions: Table 29, Renal Cancer
TK-10 = test: NCI in vitro anti-cancer activity, Renal Cancer; conditions: Table 29, Renal Cancer
SN12C = test: NCI in vitro anti-cancer activity, Renal Cancer; conditions: Table 29, Renal Cancer
NCI/ADR-RES = test: NCI in vitro anti-cancer activity, breast cancer; conditions: Table 29, Breast Cancer, NCI/ADRRES
HT29 = test: NCI in vitro anti-cancer activity, Colon Cancer; conditions: Table 29, Colon Cancer
KM12 = test: NCI in vitro anti-cancer activity, Colon Cancer; conditions: Table 29, Colon Cancer
HCT-15 = test: NCI in vitro anti-cancer activity, Colon Cancer; conditions: Table 29, Colon Cancer
SW-620 = test: NCI in vitro anti-cancer activity, Colon Cancer; conditions: Table 29, Colon Cancer
HCT-116 = test: NCI in vitro anti-cancer activity, Colon Cancer; conditions: Table 29, Colon Cancer
COLO 205 = test: NCI in vitro anti-cancer activity, Colon Cancer; conditions: Table 29, Colon Cancer
SK-MEL-5 = test: NCI in vitro anti-cancer activity, Melanoma; assay type: cell-based; conditions: Table 29, Melanoma
PC-3 = test: NCI in vitro anti-cancer activity, Prostate Cancer; conditions: Table 29, Prostate Cancer
DU-145 = test: NCI in vitro anti-cancer activity, Prostate Cancer; conditions: Table 29, Prostate Cancer
NCI-H460 = test: NCI in vitro anti-cancer activity, Non-Small Cell Lung Cancer; assay type: cell-based; conditions: Table 29, Non-Small Cell Lung Cancer
HS 578T = test: NCI in vitro anti-cancer activity, Breast Cancer; conditions: Table 29, Breast Cancer
T-47D = test: NCI in vitro anti-cancer activity, Breast Cancer; conditions: Table 29, Breast Cancer
MDA-MB-435 = test: NCI in vitro anti-cancer activity, Breast Cancer; conditions: Table 29, Breast Cancer
MDA-N = test: NCI in vitro anti-cancer activity, Breast Cancer; conditions: Table 29, Breast Cancer
MDA-MB-231/ATCC = test: NCI in vitro anti-cancer activity, Breast Cancer; conditions: Table 29, Breast Cancer
BT-549 = test: NCI in vitro anti-cancer activity, Breast Cancer; conditions: Table 29, Breast Cancer
MCF7 = test: NCI in vitro anti-cancer activity, Breast Cancer; conditions: Table 29, Breast Cancer
SK-OV-3 = test: NCI in vitro anti-cancer activity, Ovarian Cancer; conditions: Table 29, Ovarian Cancer
IGROV1 = test: NCI in vitro anti-cancer activity, Ovarian Cancer; conditions: Table 29, Ovarian Cancer
OVCAR-3 = test: NCI in vitro anti-cancer activity, Ovarian Cancer; conditions: Table 29, Ovarian Cancer
OVCAR-5 = test: NCI in vitro anti-cancer activity, Ovarian Cancer; conditions: Table 29, Ovarian Cancer
OVCAR-8 = test: NCI in vitro anti-cancer activity, Ovarian Cancer; conditions: Table 29, Ovarian Cancer
OVCAR-4 = test: NCI in vitro anti-cancer activity, Ovarian Cancer; conditions: Table 29, Ovarian Cancer
HOP-92 = test: NCI in vitro anti-cancer activity, Non-Small Cell Lung Cancer; conditions: Table 29, Non-Small Cell Lung Cancer
NCI-H23 = test: as above; conditions: Table 29, Non-Small Cell Lung Cancer
NCI-H226 = test: as above; conditions: Table 29, Non-Small Cell Lung Cancer
EKVX = test: as above; conditions: Table 29, Non-Small Cell Lung Cancer
NCI-H522 = test: as above; conditions: Table 29, Non-Small Cell Lung Cancer
A549/ATCC = test: as above; conditions: Table 29, Non-Small Cell Lung Cancer
A498 = test: NCI in vitro anti-cancer activity, renal cancer; conditions: Table 29, Renal Cancer
HL-60 (TB) = test: NCI in vitro anti-cancer activity, Leukemia; conditions: Table 29, Leukemia
SR = test: NCI in vitro anti-cancer activity, Leukemia; conditions: Table 29, Leukemia
MOLT-4 = test: NCI in vitro anti-cancer activity, Leukemia; conditions: Table 29, Leukemia
CCRF-CEM = test: NCI in vitro anti-cancer activity, Leukemia; conditions: Table 29, Leukemia, CCRF-CEM
RPMI-8226 = test: NCI in vitro anti-cancer activity, Leukemia; conditions: Table 29, Leukemia
RL DHFR = RL DHFR (Rattus norvegicus, UniProt Q920D2); test: Inhibition of DHFR from rat liver; assay type: biochemical

Sequences of proteins named here, by UniProt entry; tags and fusion partners are left off.
UniProt Q920D2, whole entry: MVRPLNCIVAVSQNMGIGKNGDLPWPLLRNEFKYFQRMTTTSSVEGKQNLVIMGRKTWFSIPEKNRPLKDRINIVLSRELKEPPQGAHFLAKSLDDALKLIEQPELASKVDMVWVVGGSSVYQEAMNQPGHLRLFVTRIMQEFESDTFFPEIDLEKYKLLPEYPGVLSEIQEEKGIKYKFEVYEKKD

## COc1ccc(CCc2c[nH]c3nc(N)nc(C)c23)cc1
K-562
  GI50: 33.8 µM
UACC-62
  GI50: > 100 µM
LOX IMVI
  GI50: 73.1 µM
UACC-257
  GI50: > 100 µM
MALME-3M
  GI50: > 100 µM
M14
  GI50: > 100 µM
SK-MEL-28
  GI50: > 100 µM
SK-MEL-2
  GI50: > 100 µM
SF-539
  GI50: 21.8 µM
U251
  GI50: 30 µM
SF-268
  GI50: 37.1 µM
SF-295
  GI50: 49.7 µM
SNB-75
  GI50: 24.2 µM
SNB-19
  GI50: 37.4 µM
786-0
  GI50: 44.5 µM
CAKI-1
  GI50: 30.2 µM
RXF 393
  GI50: 25.6 µM
ACHN
  GI50: > 100 µM
UO-31
  GI50: 48.1 µM
TK-10
  GI50: > 100 µM
SN12C
  GI50: > 100 µM
NCI/ADR-RES
  GI50: 74.4 µM
HT29
  GI50: > 100 µM
KM12
  GI50: > 100 µM
HCT-15
  GI50: 57.9 µM
SW-620
  GI50: > 100 µM
HCT-116
  GI50: > 100 µM
COLO 205
  GI50: > 100 µM
SK-MEL-5
  GI50: > 100 µM
PC-3
  GI50: > 100 µM
DU-145
  GI50: > 100 µM
NCI-H460
  GI50: 60.2 µM
HS 578T
  GI50: 80.7 µM
T-47D
  GI50: 66.4 µM
MDA-MB-435
  GI50: 59.1 µM
MDA-N
  GI50: 75.5 µM
MDA-MB-231/ATCC
  GI50: 91 µM
BT-549
  GI50: 52.1 µM
MCF7
  GI50: 61.9 µM
SK-OV-3
  GI50: > 100 µM
IGROV1
  GI50: > 100 µM
OVCAR-3
  GI50: > 100 µM
OVCAR-5
  GI50: > 100 µM
OVCAR-8
  GI50: 64.4 µM
OVCAR-4
  GI50: > 100 µM
HOP-92
  GI50: 24.1 µM
NCI-H23
  GI50: > 100 µM
NCI-H226
  GI50: > 100 µM
EKVX
  GI50: 70.9 µM
NCI-H522
  GI50: 34.4 µM
A549/ATCC
  GI50: 54.3 µM
A498
  GI50: 52.8 µM
HL-60 (TB)
  GI50: > 100 µM
SR
  GI50: 31.6 µM
MOLT-4
  GI50: 17.3 µM
CCRF-CEM
  GI50: > 100 µM
RPMI-8226
  GI50: 71.6 µM
RL DHFR; @ 11 μM
  % inhibition RL DHFR: 49% @

## COc1cc(CCc2cn(Cc3ccccc3)c3nc(N)nc(C)c23)cc(OC)c1OC
SK-MEL-28
  GI50: 11.5 µM
BT-549
  GI50: 7.8 µM
OVCAR-5
  GI50: 2.6 µM
RL DHFR; @ 35 μM
  % inhibition RL DHFR: 13% @

From US6962920B2, “Pyrimidine derivatives and methods of making and using these derivatives” (Duquesne University of the Holy Ghost, priority 1992, dated 2005)
